Assays:
Format in all cases: cell-based
Design in all cases: scale not given: the % may be the effect or the level left
[1] = biological target: P2Y purinoceptor 1 (Meleagris gallopavo) (UniProt P49652); experiment: Antagonist activity at Meleagris P2Y1R expressed in human 1321N1 cells assessed as inhibition of […] calcium mobilization at 100 uM by FLIPR assay relative to control
[2] = biological target: P2Y purinoceptor 4 (Homo sapiens) (UniProt P51582); experiment: Antagonist activity at human P2Y4R expressed in human 1321N1 cells assessed as inhibition of […] calcium mobilization at 100 uM by FLIPR assay relative to control
[3] = biological target: P2Y purinoceptor 2 (Homo sapiens) (UniProt P41231); experiment: Antagonist activity at human P2Y2R expressed in human 1321N1 cells assessed as inhibition of […] calcium mobilization at 100 uM by FLIPR assay relative to control

Sequences of proteins named here, by UniProt entry; tags and fusion partners are left off. A change or cut given only in a name is not applied to a line headed by its entry.
UniProt P49652: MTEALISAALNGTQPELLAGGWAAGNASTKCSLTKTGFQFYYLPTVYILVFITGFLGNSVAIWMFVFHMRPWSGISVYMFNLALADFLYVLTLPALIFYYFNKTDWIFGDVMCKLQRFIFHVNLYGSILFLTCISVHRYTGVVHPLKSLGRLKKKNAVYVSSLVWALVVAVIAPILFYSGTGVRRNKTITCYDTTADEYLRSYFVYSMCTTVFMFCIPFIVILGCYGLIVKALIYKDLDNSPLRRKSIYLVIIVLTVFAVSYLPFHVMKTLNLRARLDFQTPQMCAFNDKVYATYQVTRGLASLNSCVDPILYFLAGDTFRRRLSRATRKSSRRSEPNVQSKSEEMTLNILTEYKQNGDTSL
UniProt P51582: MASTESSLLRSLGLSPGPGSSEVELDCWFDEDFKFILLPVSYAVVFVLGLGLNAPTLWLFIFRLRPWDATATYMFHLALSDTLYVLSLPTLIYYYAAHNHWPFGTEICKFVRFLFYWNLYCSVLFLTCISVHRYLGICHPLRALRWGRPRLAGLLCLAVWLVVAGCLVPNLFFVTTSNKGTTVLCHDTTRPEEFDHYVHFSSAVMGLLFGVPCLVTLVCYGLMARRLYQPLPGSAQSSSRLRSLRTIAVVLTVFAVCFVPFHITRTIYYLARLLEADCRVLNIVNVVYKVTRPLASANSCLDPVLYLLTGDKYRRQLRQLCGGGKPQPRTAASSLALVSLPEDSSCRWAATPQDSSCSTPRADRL
UniProt P41231: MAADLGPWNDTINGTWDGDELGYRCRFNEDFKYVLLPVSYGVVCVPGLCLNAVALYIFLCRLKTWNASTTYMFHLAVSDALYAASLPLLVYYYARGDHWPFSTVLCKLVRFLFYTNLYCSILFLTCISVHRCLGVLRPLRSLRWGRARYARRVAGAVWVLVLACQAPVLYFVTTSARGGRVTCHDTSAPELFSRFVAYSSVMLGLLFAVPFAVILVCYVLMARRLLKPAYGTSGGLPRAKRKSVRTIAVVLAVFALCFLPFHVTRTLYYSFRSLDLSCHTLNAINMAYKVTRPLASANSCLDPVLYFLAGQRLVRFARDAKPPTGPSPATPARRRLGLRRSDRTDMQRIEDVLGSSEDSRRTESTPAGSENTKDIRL

- Activity [1]: < 30%
- Activity [2]: < 30%
- Activity [3]: < 30%
SMILES: O=[N+]([O-])C1=Cc2cc(F)ccc2OC1C(F)(F)F (racemic)
